Results on one compound are retold here after ChEMBL document CHEMBL1154690, “Identification of novel, selective, and stable inhibitors of class II histone deacetylases. Validation studies of the inhibition of the enzymatic activity of HDAC4 by small molecules as a novel approach for cancer therapy” (J Med Chem, 2009).

The structures appear in SMILES notation.

The nature of the assay: Selectivity ratio of IC50 for HDAC6 to IC50 for HDAC1.

For `O=C(O)c1cccc(-c2ccc(C(=O)C(F)(F)F)s2)c1`, the Ratio IC50 was 180.
